Assay results from article PMC7024217, “Study on Structure Activity Relationship of Natural Flavonoids against Thrombin by Molecular Docking Virtual Screening Combined with Activity Evaluation In Vitro” (Molecules, 2020).
Values belong to the compound of their own block, whether it stands above or below them.

Target: T1, bovine thrombin (Bos taurus, UniProt P00735)
T1 construct: bovine thrombin and argatroban were purchased from Sigma-Aldrich; purchased Sigma-Aldrich (St. Louis, MO, USA)
Test: Thrombin inhibitory activity assay (chromogenic substrate S-2238);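 also: microplate absorbance read-out, thrombin preincubated with test compound 5 min at 37 °C in PBS pH 7.2-7.4, inhibition relative to blank without compound after subtracting compound-only background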
Type: biochemical

[1] = IC50, Table 1, anti-thrombin, substrate S-2238 4 mg/mL
[2] = IC50 ±SD, Table 2, anti-thrombin

- IC50 [1]: > 500 µM
SMILES: COc1c(O)cc2oc(-c3ccc(O)c(O)c3)cc(=O)c2c1O [6-Methoxyluteolin]

SMILES: O=c1cc(-c2ccc(O)cc2)oc2cc(O)cc(O)c12 [Apigenin]
- IC50 [1]: 96.2 ± 10 µM
- IC50 [2]: 96.2 ± 10 µM

SMILES: O=c1cc(-c2ccccc2)oc2cc(O)cc(O)c12 [Chrysin]
- IC50 [1]: > 500 µM

SMILES: COc1cc(-c2oc3cc(O)cc(O)c3c(=O)c2O)ccc1O [Isorhamnetin]
- IC50 [1]: 72.2 ± 4.8 µM
- IC50 (IC50, thrombin inhibition, substrate 4 mg/mL): < 100 µM
- IC50 [2]: 72.2 ± 4.8 µM
